From patent US20050163707A1, “Cancer treatment” (priority 2002, published 2005)

Test system: HT29 colon tumour xenografts
Assay: Tumour volume tripling time of HT29 xenografts in nude mice after 90Y-hHMFG1 radioimmunotherapy and/or chemotherapy
Assay type: in vivo, mouse (human tumour xenograft)
Conditions: Table 2, HT29 vincristine, Observer 2, control 10.7; 90Y-hHMFG1 1.4 MBq; vincristine 2 mg/kg; combinations 24 h apart
Method: The human bladder tumour cell line, HT1376, and the human colon tumour cell line HT29 expressing polymorphic epithelial mucin (PEM) were cultured in RPMI 1640 tissue culture medium containing 100 U·ml^−1 penicillin and 100 μg·ml^−1 streptomycin, supplemented with 10% foetal calf serum in a humidified atmosphere of 5% carbon dioxide in air. HT1376 is a human bladder carcinoma cell line obtained from the European Collection of Animal Cell Cultures (ECACC no. 87032402). HT29 is human colon carcinoma cell line obtained from European Collection of Animal Cell Cultures (ECACC no. 91072201).
The fully humanised version of the anti-PEM antibody, HMFG1, was produced by Lonza, Slough, UK. This humanised HMFG1 (hHMFG1) was conjugated with the chelating agent […] by BioInvent, Sweden. […]
Approximately three weeks after tumour inoculation, when the tumours were around 0.2 cm^3 in volume (7-8 mm in diameter), mice were divided into treatment groups of 7-8 mice each. […] Tumour diameters (d1, d2 and d3) were measured twice weekly in three orthogonal directions using a vernier calliper and the tumour volume (v) calculated according to the formula for an ellipsoid: [formula]
Relative tumour volume (the volume of each tumour divided by the tumour volume on the day of treatment) was calculated to minimise the effect of variation in treatment volume of the individual tumours. […]

## CC[C@]1(O)C[C@H]2CN(CCc3c([nH]c4ccccc34)[C@@](C(=O)OC)(c3cc4c(cc3OC)N(C=O)[C@H]3[C@@](O)(C(=O)OC)[C@H](OC(C)=O)[C@]5(CC)C=CCN6CC[C@]43[C@@H]65)C2)C1 [vincristine, Vincristine]
  Median volume tripling time: 14.7 days
